Laboratory results taken from US9079866B2, “Flap modulators” (JANSSEN PHARMACEUTICA NV, priority 2013, dated 2015).
Read-outs that look alike come from different tables or passages of the source.

Protein sequences, listed by entry. Tags and fused reporters are not part of them. Lines headed by an entry give the natural chain unless they say otherwise; changes in a name come on top.
UniProt P20292: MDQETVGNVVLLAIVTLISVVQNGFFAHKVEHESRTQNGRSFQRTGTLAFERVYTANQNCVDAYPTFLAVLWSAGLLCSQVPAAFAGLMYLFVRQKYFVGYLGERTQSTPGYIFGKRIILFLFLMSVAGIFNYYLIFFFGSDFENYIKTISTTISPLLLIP

How the values were obtained:
[1] = target: human FLAP (Homo sapiens (Human), UniProt P20292); assay: FLAP binding assay (HTRF format)
Description: (§1) The ability of the compounds of the present invention to treat a FLAP-mediated disease and/or disorder, or associated symptoms or complications thereof, was determined using the following procedures. Binding assay data represent the average value obtained from two different assay plates, with samples run in duplicate on each plate. Human whole blood assay data represent a single replicate on an assay plate using whole blood from at least one healthy donor.
Data are expressed as a HTRF ratio.

[2] = system: leukotriene pathway in human whole blood (LTB4 levels); assay: Human whole blood assay (A23187-stimulated LTB4); assay type: cell-based; conditions: read-out: LTB4 IC50 1:1
Description: as §1
An in vitro cellular assay was performed using human whole blood collected in heparin-containing tubes, which was used to test the ability of compounds to modulate the leukotriene pathway in human whole blood. The blood was diluted 1:1 in RPMI medium, pre-incubated for 15 min at 37° Celsius with test compounds at various concentrations, and then stimulated with calcium ionophore, A23187 (7 μg/mL), for 30 min at 37° Celsius. The samples were then centrifuged and plasma was removed. The plasma was diluted in assay buffer and LTB4 levels were measured using a commercial kit (Enzo Life Sciences). The concentration of each compound that was required for half-maximal inhibition (modulation) of recombinant enzyme activity (IC50) was calculated by a 4-parameter equation using the program GraphPad Prism (GraphPad software).

[3] = human FLAP wild type, HTRF format, average of two plates, duplicates
[4] = read-out: FLAP Binding wild type HTRF Ki

Ki ([1]; wild type FLAP, HTRF format) [nM] | Compound | Ki [1, 3] [nM] | Ki [1, 4] [nM] | IC50 [2] [nM]
311 | Nc1cnc(-c2ccc(-c3ccccc3O[C@H]3CCCNC3)cc2F)cn1 [Example 634, 5-{3-Fluoro-2′-[(3S)-piperidin-3-yloxy]biphenyl-4-yl}pyrazin-2-amine] |  |  | 
> 10000 | Nc1ncc(-c2ccc(-c3ccccc3O[C@@H]3CCCNC3)cc2F)cn1 [Example 633, 5-{3-Fluoro-2′-[(3R)-piperidin-3-yloxy]biphenyl-4-yl}pyrimidin-2-amine] |  |  | 
 | Nc1cnc(-c2ccc(-c3ccccc3S(=O)(=O)N3CC[C@H](N)C3)cc2F)cn1 [Example 93, (S)-5-(2′-((3-Aminopyrrolidin-1-yl)sulfonyl)-3-fluoro-[1,1′-biphenyl]-4-yl)pyrazin-2-amine] | 127 |  | 
 | CC(CO)NS(=O)(=O)c1ccccc1-c1ccc(-c2cnc(N)cn2)c(F)c1 (stereo in doubt) [Example 32, 4′-(5-Aminopyrazin-2-yl)-3′-fluoro-N-[(1S)-2-hydroxy-1-methylethyl]biphenyl-2-sulfonamide] | 8 |  | 
 | C[C@@H](CC#N)NS(=O)(=O)c1ccccc1-c1ccc(-c2cnc(N)cn2)c(F)c1 [Example 171, (S)-4′-(5-Aminopyrazin-2-yl)-N-(1-cyanopropan-2-yl)-3′-fluoro-[1,1′-biphenyl]-2-sulfonamide] |  | 2 | 13
 | C[C@H](CC#N)NS(=O)(=O)c1ccccc1-c1ccc(-c2cnc(N)cn2)c(F)c1 [Example 170, (R)-4′-(5-Aminopyrazin-2-yl)-N-(1-cyanopropan-2-yl)-3′-fluoro-[1,1′-biphenyl]-2-sulfonamide] |  | 1 | 12
